# Binding of CDR-mutated scFvs to a peptide of the spike HR2 region

Target peptide (SARS-CoV-2 spike, HR2 region): PDVDLGDISGINAS

Each scFv is VH, a 15-residue (Gly4Ser)3 linker, VL, as in the parent Ab-14, and differs from it in the CDRs of the heavy chain only.
VH: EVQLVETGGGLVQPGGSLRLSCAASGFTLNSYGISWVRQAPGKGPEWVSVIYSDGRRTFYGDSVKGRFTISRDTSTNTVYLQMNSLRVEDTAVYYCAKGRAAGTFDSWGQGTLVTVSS
VL: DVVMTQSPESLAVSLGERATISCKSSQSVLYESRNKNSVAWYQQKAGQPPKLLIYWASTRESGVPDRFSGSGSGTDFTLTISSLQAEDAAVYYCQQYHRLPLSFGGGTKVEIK

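The parent was found by panning a naive human phage display library on the peptide. The variants were designed computationally from a first round of random CDR variants and then made and measured. Group labels follow the data file (Ctrl: baseline library sampled from a position-specific scoring matrix, with some repeated check sequences; Rand: our label for a block that the file lists under HC and that is probably the random mutants of the ten best first-round binders; En: ensemble of fine-tuned language models; GP: Gaussian process model; GPLM: also part of the Gaussian process libraries; HC: hill climbing; Gen: genetic algorithm; Gibbs: Gibbs sampling; a sequence that several methods proposed may carry one label only). AlphaSeq pools MATa yeast showing the antibodies with MATalpha yeast showing the peptide. The frequency of each diploid, read from paired DNA barcodes, reflects how well the two displayed proteins bind. Read counts were normalised to the haploid input and turned into Kd by a linear fit to BCL2-family pairs of known affinity, for each replicate. Each pool was mated in six replicate cultures.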

The parent's heavy chain CDRs are GFTLNSYGIS, VIYSDGRRTFYGDSVK, GRAAGTFDS; each variant's own CDRs replace them letter for letter. Variants here have at most six changes. Affinities are written as log10 Kd with Kd in nM; a lower number is a better binder. Replicates are averaged; those with no signal do not enter the mean. Where no diploid with the target was found in any replicate, the entry reads "no signal": below detection, most likely a poor binder, though not proof of it. The parent sequence was in this pool as ten entries: three were never detected, three once, and four in most replicates, with averages from 0.34 to 2.37.

The variant GFWLNLYGIS / VIYSDGRRTFYGDSVK / SRAAGTFDS [Ctrl] gave 2.18 (1 of 6 replicates; controls 0 of 18). The variant GFDLNSYGIS / VIYSDGRRTFYVDSVK / GQAVGTFDT [GP_Gibbs] gave 1.29 (3 of 6 replicates; controls 0 of 18). The variant GFSLNMYGIS / VIYSDGRRTFYADSVK / GQAAGTFDS [GPLM_Gen] gave 0.78 (6 of 6 replicates; controls 0 of 18). With GFTLNSYGIS / VIYSDGRRTFYGDSVK / GRPAGLFDE [Ctrl] the result was no signal (0 of 6 replicates; controls 0 of 18). For GFTLNEYGIS / VIYSDGRRTFMGDSVK / GRAAGTFDH [Ctrl], the assay gave 1.60 (5 of 6 replicates; controls 1 of 18).

The variant GFALNEYGIS / VIYSDGRRTFYVDDVK / GRTAGTFDS [GP_HC] gave 1.15 (6 of 6 replicates; controls 0 of 18). With GFELNSYGIS / VIYSDGRRTAYGDSVK / GYAAGTFDT [Ctrl] the result was 0.03 (6 of 6 replicates; controls 0 of 18). The variant GFTLNEYGIS / VIYSDGRRTFYTDSVK / GRAAGTFDS [Ctrl+GP_HC] showed 0.08 (12 of 12 replicates; controls 1 of 36). The variant LFDLNSYGIS / VIYSDGRRTFYADSVK / GRTAGTFDS [GP_Gen] showed -0.12 (6 of 6 replicates; controls 0 of 18). With GFKLNQYGIS / VIYSDGRRTFYSDSVK / GRQAGTFDS [GP_HC] the result was -0.18 (6 of 6 replicates; controls 0 of 18).

The variant GFTLNKYGIS / VIYSDGFRTFYGDSVK / GRAHGTFCS [Ctrl] gave no signal (0 of 6 replicates; controls 0 of 18). With GFTLNEYGIS / VIYSDGRRTFYADSVK / GRTAGTFDS [GPLM_Gen] the result was 0.01 (6 of 6 replicates; controls 0 of 18). For GFSLNMYGIS / VIYSDGRRTFYGDSVK / GNTAGTFDS [GP_Gibbs], the assay gave 0.17 (6 of 6 replicates; controls 0 of 18). With GFQLNSYGIS / VIYADGQRTFYGDSVK / GRAAGTFDS [Ctrl] the result was 0.29 (6 of 6 replicates; controls 1 of 18). The variant GFTLNSYGIS / VIYSDGRRKFYTDSVK / GRAAGTFDS [Ctrl] showed 1.08 (6 of 6 replicates; controls 0 of 18).

With GFELNSYGIS / VIYSDGRRTFYGDSVK / GRTAGTFDK [GP_Gen] the result was 0.48 (3 of 6 replicates; controls 0 of 18). The variant GFSLLEYGIS / VIYSDGRRTEYGDSVK / GRAAGTFWS [Ctrl] gave no signal (0 of 6 replicates; controls 0 of 18). The variant GFDLNSYGIS / VIYSDGCRTFYTDSVK / GRAAVTFDS [GP_HC] showed no signal (0 of 6 replicates; controls 0 of 18). The variant GFTLFSYGIS / VIYSDGRRTFAGDSVK / GRAAGTALS [Rand] showed no signal (0 of 6 replicates; controls 0 of 18). For GFSLNSYGIS / VIYSDGRRTFYGDSVK / GEAAGTFDD [GPLM_Gen], the assay gave 1.03 (6 of 6 replicates; controls 0 of 18).

For GFTLYSYGIS / VIYADGDRTFYGDHVK / GRAAGTNKS [Rand], the assay gave no signal (0 of 6 replicates; controls 0 of 18). With GFTLEKYGIS / VIYSDGRRTFYGDSVK / GRAAGTFDS [GP_HC] the result was 0.35 (5 of 6 replicates; controls 0 of 18). With GFTLNSYGIS / VIYSDGRRTFYADSVK / GRAAGTFDK [GPLM_HC] the result was 1.31 (6 of 6 replicates; controls 1 of 18). With GFSLNSYGIS / VIYSDGRRTFYDDSVK / GLLAGTFDS [GP_HC] the result was 2.65 (3 of 6 replicates; controls 0 of 18). With GFDLNSYGIS / VIYSDGRRTFYGDSVS / GRAGLTYDS [Ctrl] the result was no signal (0 of 6 replicates; controls 0 of 18).

The variant GFTLNDYGIS / VIYSDGRRTFYIDSVK / GRAAGTFDS [Ctrl+GPLM_Gen] showed 0.87 (6 of 12 replicates; controls 1 of 36). For GFTLESYGIS / VIYSDGRRTFYADSVK / GRAAGTFDR [GPLM_Gen], the assay gave 0.64 (6 of 6 replicates; controls 1 of 18). With GFNLNSYGIS / VIYSDGRRTFYDDSTK / GEAAGTFDS [Ctrl] the result was 0.58 (2 of 6 replicates; controls 0 of 18). The variant GFDLNEYGIS / VIYSDGMRTFYGDSVK / GRTAGTFDS [GP_Gen] showed -0.21 (6 of 6 replicates; controls 0 of 18). The variant GFSLNQYGIS / VIYSDGRRTAYQDSVK / GRAAGTFDS [GP_HC] showed -0.62 (6 of 6 replicates; controls 0 of 18).

For GFTINSYGIS / VIYSDGRRTFYADSVK / GRAAGTFDS [Ctrl+GPLM_Gen], the assay gave 1.59 (12 of 12 replicates; controls 0 of 36). With GFGLNSYGIS / VIYADGRRTFYGDSVK / GRTAGTFDS [GP_Gen] the result was 0.06 (6 of 6 replicates; controls 1 of 18). For GFTLNSYGIS / VIYSDGVRTFYSDSVK / GRTAGTFDS [GPLM_Gibbs], the assay gave 0.11 (6 of 6 replicates; controls 0 of 18). With GFDLNEYGIS / VIYADGRRTFYTDSVK / GEAAGTFDV [En_HC] the result was -0.63 (6 of 6 replicates; controls 0 of 18). With PFDLNSYGIS / VIYSDGRRTFYADSVK / GRQAGTFDS [GP_Gen] the result was no signal (0 of 6 replicates; controls 0 of 18).

The variant GFSLNEYGIS / VIYSDGRRTFYTDSVK / GQAAGTFDS [GPLM_HC] showed -0.17 (6 of 6 replicates; controls 0 of 18). The variant GFTLDSYGIS / VIYSDGRRTFYGDDVK / GRTAGTFDS [GPLM_HC] gave 1.82 (4 of 6 replicates; controls 0 of 18). The variant GFTLNEYGIS / VIYSDGRRTFYSDSVK / GRAAGRFDS [GPLM_HC] gave 2.22 (1 of 6 replicates; controls 0 of 18).

From the list, the first 6 with no signal in any replicate:

CDR-H1,CDR-H2,CDR-H3,group,"mean, log10 nM",detected,signal with controls
GFTLNSYGIS,VIYSDGRRTFYGDSVK,GRPAGLFDE,Ctrl,no signal,0 of 6,0 of 18
GFTLNKYGIS,VIYSDGFRTFYGDSVK,GRAHGTFCS,Ctrl,no signal,0 of 6,0 of 18
GFSLLEYGIS,VIYSDGRRTEYGDSVK,GRAAGTFWS,Ctrl,no signal,0 of 6,0 of 18
GFDLNSYGIS,VIYSDGCRTFYTDSVK,GRAAVTFDS,GP_HC,no signal,0 of 6,0 of 18
GFTLFSYGIS,VIYSDGRRTFAGDSVK,GRAAGTALS,Rand,no signal,0 of 6,0 of 18
GFTLYSYGIS,VIYADGDRTFYGDHVK,GRAAGTNKS,Rand,no signal,0 of 6,0 of 18

Where one sequence has several entries in the source, the replicates are pooled. A sequence measured in both rounds can read differently, since the two assays cover different ranges. Nonspecific signal, from three strains lacking the peptide, appeared in 1% of pairings of all heavy chain designs, centred on 2.08 (5% of these signals below 0.84); values are not corrected for it. Also given: how often the same scFv was detected with the empty control strains. The authors' rule: three or more of the six replicates give a measured affinity, fewer mean a poor binder.

Reference: Li et al. 2023, doi:10.1038/s41467-023-39022-2. File: FLAb, binding data.